## Apparent affinities of Ab-95 variants for a coronavirus HR2 peptide

Reference: Engelhart et al. 2022, doi:10.1038/s41597-022-01779-4. File: FLAb, binding data.

All variants were tested on one target, the spike HR2 peptide PDVDLGDISGINAS (SARS-CoV-2).

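The library (AAYL52) carries one to three amino acid substitutions per variant, with no insertions or deletions. AlphaSeq pools MATa yeast showing the antibodies with MATalpha yeast showing the peptide. Binding brings cells together so that they mate, and sequencing counts the barcode pairs among the diploids. Scores were corrected for input abundance and mapped to Kd with protein pairs of known affinity run in the same pool. Each pool was mated in three replicate cultures.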

The variants keep the heavy chain, the linker and the frameworks of Ab-95 (scFv order VH, the linker GGGGSGGGGSGGGGS, VL).
VH: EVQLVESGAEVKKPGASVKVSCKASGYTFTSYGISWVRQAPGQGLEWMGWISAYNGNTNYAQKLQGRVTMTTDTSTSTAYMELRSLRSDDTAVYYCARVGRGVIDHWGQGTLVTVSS
VL: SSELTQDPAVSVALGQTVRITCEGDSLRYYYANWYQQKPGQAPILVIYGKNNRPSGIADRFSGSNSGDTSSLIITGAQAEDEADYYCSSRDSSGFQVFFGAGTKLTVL

Each variant's VL is given in full. Values are log10 of the apparent Kd in nM; lower means stronger binding. An entry "ND" has no value in the source: the pair was not observed among the diploids in that replicate. This suggests poor binding but is not conclusive. Empty control strains, which show no peptide, gave a signal in 28% of pairings with library AAYL52; the median was 3.91 and 95% of these signals were weaker than 2.90. No background was subtracted. The control count says in how many pairings with the empty strains this scFv gave a signal. In this assay the parent's reference entry averaged 2.31; its copy inside this library read 2.25.

The variant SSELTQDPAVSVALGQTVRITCGGDSLRYYYANWYQQKPGQAPILVIYGKNNRPSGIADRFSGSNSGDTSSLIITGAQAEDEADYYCSSRFQSGFQVFFGAGTKLTVL gave 3.11, 2.88, 2.99 (controls 5 of 9).
The variant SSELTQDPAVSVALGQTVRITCEGDSLRLYYANWYQQKPGQAPILVIYGKLPRPSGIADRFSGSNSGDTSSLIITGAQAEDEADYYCSSRDSSGFQVFFGAGTKLTVL gave ND, 3.22, ND (controls 2 of 9).
The variant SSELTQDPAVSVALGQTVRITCVGDSLRYYYANWYQQKPGQAPILVIYGKNNPPSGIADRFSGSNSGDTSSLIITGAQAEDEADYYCSSRDSSGFQVFFGAGTKLTVL gave 3.24, 4.19, 3.48 (controls 6 of 9).
The variant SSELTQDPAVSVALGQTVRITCEGDSFRYYIANWYQQKPGQAPILVIYGKNNRPSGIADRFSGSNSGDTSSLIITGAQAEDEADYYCSHRDSSGFQVFFGAGTKLTVL gave ND, 4.52, ND (controls 1 of 9).
The variant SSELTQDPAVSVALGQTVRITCEGDSLRYYYANWYQQKPGQAPILVIYGKNNRPKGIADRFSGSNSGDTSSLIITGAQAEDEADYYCMSRDSSGFQVEFGAGTKLTVL gave 2.22, 2.98, 2.17 (controls 4 of 9).
The variant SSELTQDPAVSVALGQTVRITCEGDYRRYYYADWYQQKPGQAPILVIYGKNNRPSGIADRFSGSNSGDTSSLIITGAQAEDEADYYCSSRDSSGFQVFFGAGTKLTVL gave 3.01, 3.32, ND (controls 4 of 9).
The variant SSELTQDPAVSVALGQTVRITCEGDSLRYNYANWYQQKPGQAPILVIYGKNNRPSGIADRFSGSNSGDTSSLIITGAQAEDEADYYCSSRDSSWEQVFFGAGTKLTVL gave 3.64, 4.16, 4.54 (controls 4 of 9).
The variant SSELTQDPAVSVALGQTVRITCEGDSLRYYYANWYQQKPGQAPILVIYGLNNRPYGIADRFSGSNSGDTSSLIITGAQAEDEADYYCSSCDSSGFQVFFGAGTKLTVL gave ND, 5.13, ND (controls 2 of 9).
The variant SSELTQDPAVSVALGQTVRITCEGDSLAYYYANWYQQKPGQAPILVIYLKNNYPSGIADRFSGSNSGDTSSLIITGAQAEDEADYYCSSRDSSGFQVFFGAGTKLTVL gave 4.28, ND, ND (controls 5 of 9).
The variant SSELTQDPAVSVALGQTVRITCEGDNLRYYYANWYQQKPGQAPILVIYGKNNEVSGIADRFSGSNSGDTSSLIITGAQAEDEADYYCSSRDSSGFQVFFGAGTKLTVL gave 3.80, 3.96, ND (controls 2 of 9).
The variant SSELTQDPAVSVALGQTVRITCEGDSLRYYQINWYQQKPGQAPILVIYLKNNRPSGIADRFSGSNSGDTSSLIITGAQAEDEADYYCSSRDSSGFQVFFGAGTKLTVL gave 5.00, ND, ND (controls 0 of 9).
The variant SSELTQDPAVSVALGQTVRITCEGDSLRYPYANWYQQKPGQAPILVIYGKNNRPSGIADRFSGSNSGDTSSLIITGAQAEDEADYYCSSRDASGFAVFFGAGTKLTVL gave 2.23, 2.24, 1.87 (controls 6 of 9).
The variant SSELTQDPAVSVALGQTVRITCEGDSDRYYGWNWYQQKPGQAPILVIYGKNNRPSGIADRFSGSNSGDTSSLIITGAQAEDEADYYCSSRDSSGFQVFFGAGTKLTVL gave 3.32, 2.96, 3.34 (controls 6 of 9).
The variant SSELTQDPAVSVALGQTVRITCEGDSIRYYYANWYQQKPGQAPILVIYGRNNRPPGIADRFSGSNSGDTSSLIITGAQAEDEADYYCSSRDSSGFQVFFGAGTKLTVL gave 3.69, 2.97, 3.71 (controls 0 of 9).
The variant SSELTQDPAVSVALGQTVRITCEGDSLRYCETNWYQQKPGQAPILVIYGKNNRPSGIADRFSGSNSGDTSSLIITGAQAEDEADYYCSSRDSSGFQVFFGAGTKLTVL gave 1.69, 1.20, 0.86 (controls 1 of 9).
The variant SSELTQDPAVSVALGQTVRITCEGPSLRYYYANWYQQKPGQAPILVIYQKNNRPSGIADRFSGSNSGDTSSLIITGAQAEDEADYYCSSRDSSGFQVCFGAGTKLTVL gave 3.52, 3.79, ND (controls 5 of 9).
The variant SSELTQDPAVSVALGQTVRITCEGDSLRYYYATWYQQKPGQAPILVIYGKNNDPSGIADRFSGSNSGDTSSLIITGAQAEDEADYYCSSRDSSGFQVSFGAGTKLTVL gave 2.66, 4.42, ND (controls 1 of 9).